Broadly, the MIC is the lowest concentration that inhibits growth of the organism. A high value points to weaker potency.

Results on two molecules are retold here after patent publication US11396531B2, “Antimicrobial peptides comprising epsilon lysine residues” (priority 2016, dated 2022).

Values after ≈ are worked out from the molar mass of the structure shown. Where two headings read alike, the source gives them in different places.

For data set [1], the system named is human primary blood T-cell lymphocytes (PBTL). Nature of the data set: Cytokine determination by ELISA (immunogenicity). It is filed as cell-based. The conditions noted are these: 62.5 and 125 μg/ml, 24 h. The procedure: The cells were exposed to peptides (62.5 and 125 μg/ml) and the amounts of Interleukins-2, -4 and 5 (IL-2, IL-4 and IL-5) and Interferon γ (IFNγ) were quantitatively determined by Enzyme-linked immunosorbent assay (ELISA). Mitogenic plant lectin phytohaemagglutinin (PHA) was used as a positive controls.
For orientation: In an ELISA, binding on a coated surface is turned into a signal by an enzyme label.

A further data set relates to E. cloacae complex. The procedure:
(§1) MIC of cationic polymers and polypeptide were tested in accordance with the Clinical and Laboratory Standards Institute (CLSI) guidelines against a panel of antibiotic-susceptible/-resistant bacteria, yeasts and fungal strains. Bacterial and yeast strains were cultured on tryptic soy agar (TSA) and Sabaroud dextrose agar (SDA) plates (Neogen Corporation, MI, USA) overnight respectively. Inocula in Mueller-Hinton broth (MHB) for bacteria and SD broth for C. albicans (Beckton Dickinson, MD, USA) were prepared at 0.5 McFarland. The suspensions were then diluted to a final concentration of 10^5 CFU/ml in a 96-well microtitre plate (SPL Life Sciences Co., Ltd, Korea). […] The antimicrobial activities were compared with topical antiseptic agents, BAK and CHX. A similar protocol was used to determine the MIC of εPL against antibiotic-resistant pathogens. MIC of the polymers and polypeptides against Fusarium strains was determined in full strength RPMI-1640 buffer. Fungal spores were recovered from a 5-day old culture on a potato dextrose agar and diluted to a concentration of 10^5 spores/ml in 0.9% saline solution. A further 50-fold dilution was done in RPMI-1640 buffer and 100 μl of the inoculum was added to 96 well plates containing an equal volume of test peptides at 2-fold serial dilutions. 200 μl of inoculum without any additives and buffer alone served as positive and negative controls, respectively. The plate was then incubated at 30° C. for 48 h. The absorbance value was measured at 600 nm as before and the lowest concentration of the peptide which inhibited 90% growth was reported. All MIC determinations were performed in duplicates.
(§2) MICs of polymers/antibiotics were determined using the microdilution method in 96 well microtitre plates (SPL Life Sciences Co., Ltd, Korea), following the guidelines of Clinical and Laboratory Standards Institute (CLSI) document M100-S18. Briefly, polymers (1-512 μg/ml) or antibiotics were dissolved in appropriate media (Mueller Hinton broth, MHB for bacteria; Sabaroud's Dextrose (SD) broth for yeasts and RPMI buffer for Fusarium strains) and 100 μl of this was then mixed with an equal volume of microbial inoculum (OD600=˜0.08) in the same media and shaken in a closed incubator.

The test system of the next data set is A. baumannii. To be noted: A. baumannii (n = 10), Table 5; for MIC90: 90% of strains susceptible; for MIC: range. On the procedure:
as §1, §2

Another data set concerns C. albicans. The conditions noted are these: for MIC: C. albicans (n = 5), Table 5; for MIC against C. albicans (n = 5): Table 4, range over 5 strains. The procedure: as §1, §2
The next data set has as its system S. epidermidis 12228. The conditions noted are these: S. epidermidis 12228, Table 5. On the procedure: as §1, §2
In another data set the test system is C. tropicalis. To be noted: C. tropicalis (n = 9), Table 5. The procedure: as §1, §2
For another data set, the system named is C. parapsilosis. To be noted: C. parpsilosis (n = 9), Table 5. The procedure:
as §1, §2

The subject of a further data set is B. cereus ATCC 11778. To be noted: B. cereus ATCC 11778, Table 5. The procedure:
as §1, §2

A further data set concerns B. subtilis ATCC 6633. The conditions noted are these: B. subtilis ATCC 6633, Table 5. On the procedure:
as §1, §2

Data set [2] has as its system Vancomycin-resistant Enterococcus (VRE). The conditions noted are these: VRE (n = 21 strains), Table 5; for MIC90: 90% of strains susceptible; for MIC: range. The procedure: as §1, §2
The test system of data set [3] is Carbapenam-resistant Enterobacter strains (CRE). To be noted: CRE (n = 19 strains), Table 5; for MIC50: 50% of strains susceptible; for MIC: range. On the procedure:
as §1, §2

For the next data set, the system named is P. aeruginosa. It counts as cell-based, Pseudomonas aeruginosa. The conditions noted are these: for MIC against P. aeruginosa (n = 5): Table 4, range over 5 strains. On the procedure: as §1, with “Korea). Polymers and polypeptides were added to the inoculum in 2-fold serial dilutions to give a range of concentrations from 2-1024 μg/ml.” for “Korea).”
as §2

Setting [4] is: E. cloacae complex 6780, Table 5.
[5] abbreviates: E. cloacae complex 44095, Table 5.

Regarding `CC[C@H](C)[C@H](NC(=O)CN)C(=O)NCC(=O)N[C@@H](C)C(=O)N[C@H](C(=O)N[C@@H](CC(C)C)C(=O)NCCCC[C@H](N)C(=O)N[C@H](C(=O)N[C@@H](CC(C)C)C(=O)N[C@H](C(=O)N[C@H](C(=O)NCC(=O)N[C@@H](CC(C)C)C(=O)N1CCC[C@H]1C(=O)N[C@@H](C)C(=O)N[C@@H](CC(C)C)C(=O)N[C@H](C(=O)N[C@@H](CO)C(=O)N[C@@H](Cc1c[nH]c2ccccc12)C(=O)N[C@H](C(=O)N[C@@H](CCCCN)C(=O)N[C@@H](CCCNC(=N)N)C(=O)N[C@@H](CCCCN)C(=O)N[C@@H](CCCNC(=N)N)C(=O)N[C@@H](CCC(N)=O)C(=O)N[C@@H](CCC(N)=O)C(N)=O)[C@@H](C)CC)[C@@H](C)CC)[C@@H](C)O)[C@@H](C)O)C(C)C)C(C)C` [Peptide 3], the “cytokine production (IL-2, IL-4, IL-5, IFNγ) from PBTLs” value in data set [1] is “no apparent induction of cytokine production”. Besides, the MIC is 4 µg/mL (≈ 1.41 µM) in the data set on E. cloacae complex (setting [4]); 8 µg/mL (≈ 2.81 µM) with E. cloacae complex (setting [5]); 2 to 4 µg/mL against A. baumannii; 4 to 8 µg/mL in the data set with C. albicans; 4 µg/mL (≈ 1.41 µM) against S. epidermidis 12228; 1 to 32 µg/mL against C. tropicalis. The minimal inhibitory concentration (MIC) is 16 to 64 µg/mL against C. parapsilosis; 4 µg/mL (≈ 1.41 µM) with B. cereus ATCC 11778; 8 µg/mL (≈ 2.81 µM) against B. subtilis ATCC 6633; 4 to 8 µg/mL in data set [2]; 8 to 64 µg/mL in data set [3]. The figures for the MIC90 entry (against A. baumannii; in [2]) were “(MIC90 = 4) μg/ml” and “(MIC90 = 8) μg/ml”, respectively. For the same molecule, the “MIC against C. albicans (n = 5)” value in the data set on C. albicans is 4 to 8 µg/mL. Further, the MIC50 result in [3] is recorded as “(MIC50 = 8) μg/ml”. Also, the “MIC against P. aeruginosa (n = 5)” value with P. aeruginosa was 16 to 32 µg/mL.
`CC[C@H](C)[C@H](NC(=O)CN)C(=O)NCC(=O)N[C@@H](C)C(=O)N[C@H](C(=O)N[C@@H](CC(C)C)C(=O)NCCCC[C@H](N)C(=O)N[C@H](C(=O)N[C@@H](CC(C)C)C(=O)N[C@H](C(=O)N[C@H](C(=O)NCC(=O)N[C@@H](CC(C)C)C(=O)N1CCC[C@H]1C(=O)N[C@@H](C)C(=O)N[C@@H](CC(C)C)C(=O)N[C@H](C(=O)N[C@@H](CO)C(=O)N[C@@H](Cc1c[nH]c2ccccc12)C(=O)N[C@H](C(=O)NCCCC[C@H](N)C(=O)N[C@@H](CCCNC(=N)N)C(=O)NCCCC[C@H](N)C(=O)N[C@@H](CCCNC(=N)N)C(=O)N[C@@H](CCC(N)=O)C(=O)N[C@@H](CCC(N)=O)C(N)=O)[C@@H](C)CC)[C@@H](C)CC)[C@@H](C)O)[C@@H](C)O)C(C)C)C(C)C` [Peptide 4]: the “cytokine production (IL-2, IL-4, IL-5, IFNγ) from PBTLs” value in data set [1] is “no apparent induction of cytokine production”. Besides, the MIC against E. cloacae complex (setting [4]) was 4 µg/mL (≈ 1.41 µM); with E. cloacae complex (setting [5]), 8 µg/mL (≈ 2.81 µM); against A. baumannii, 4 to 8 µg/mL; against C. albicans, 4 to 8 µg/mL; against S. epidermidis 12228 it was 4 µg/mL (≈ 1.41 µM); against C. tropicalis it was 1 to 32 µg/mL. For the same molecule, the MIC in the data set on C. parapsilosis is 8 to 64 µg/mL; in the data set with B. cereus ATCC 11778, 4 µg/mL (≈ 1.41 µM); in the data set with B. subtilis ATCC 6633, 8 µg/mL (≈ 2.81 µM); in data set [2] it was 4 to 16 µg/mL; in data set [3] it was 8 to 64 µg/mL. In addition, the MIC90 result (in the data set on A. baumannii; in data set [2]) was “(MIC90 = 8) μg/ml” throughout. The “MIC against C. albicans (n = 5)” value in the data set with C. albicans lay within 4 to 8 µg/mL. Also, the MIC50 result in data set [3] is “(MIC50 = 16) μg/ml”. Moreover, the “fold increase in GM-MIC versus melittin” value with P. aeruginosa (P. aeruginosa strains) was 3 fold. In addition, the “MIC against P. aeruginosa (n = 5)” value against P. aeruginosa was in the range of 16 to 64 µg/mL.
